Assay results reported in patent US7589201B2, “Derivatives of 1,4-diazabicyclo[3.2.1]octanecarboxamide, preparation method thereof and use of same in therapeutics” (Sanofi-Aventis, priority 2004, dated 2009).

Amino acid sequences for entries named in this document (tags omitted). Residues count along the entry.
UniProt Q05941, 23-502 limits assumed: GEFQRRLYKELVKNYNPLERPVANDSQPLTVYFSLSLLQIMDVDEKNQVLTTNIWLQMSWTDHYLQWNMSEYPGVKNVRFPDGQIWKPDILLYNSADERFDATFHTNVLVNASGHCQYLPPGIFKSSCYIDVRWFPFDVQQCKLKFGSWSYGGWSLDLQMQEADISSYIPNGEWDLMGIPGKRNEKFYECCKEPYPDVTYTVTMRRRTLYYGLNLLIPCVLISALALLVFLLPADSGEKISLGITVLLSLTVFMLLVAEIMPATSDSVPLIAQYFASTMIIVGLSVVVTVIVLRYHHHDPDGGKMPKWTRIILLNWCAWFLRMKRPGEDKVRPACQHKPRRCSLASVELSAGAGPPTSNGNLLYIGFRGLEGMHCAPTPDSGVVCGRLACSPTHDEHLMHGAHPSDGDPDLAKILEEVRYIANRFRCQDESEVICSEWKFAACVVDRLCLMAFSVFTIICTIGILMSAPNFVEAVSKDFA

Biological target: nicotinic receptors containing the α7 subunit (Rattus norvegicus, UniProt Q05941)
Assay: [3H]-α-bungarotoxin binding to rat brain membranes, affinity for α7 nicotinic receptors
Conditions: read-out: IC50 α7; inhibition of specific binding of 1 nM [3H]-α-bungarotoxin, rat whole brain membranes
Experimental: The compounds of the invention were also studied with regard to their affinity for nicotinic receptors containing the α7 subunit, in accordance with the methods described by Mark and Collins in J. Pharmacol. Exp. Ther. 1982, 22, 564 and by Marks et al. in Mol. Pharmacol. 1986, 30, 427.
Male OFA rats weighing 150 to 200 g are decapitated, the whole brain is removed rapidly and is homogenized using a Polytron™ mill in 15 volumes of 0.32 M sucrose solution at 4° C., then centrifuged at 1,000 G for 10 min. The pellet is discarded and the supernatant is centrifuged at 8,000 G at 4° C. for 20 min. The pellet is recovered and is homogenized using a Polytron™ mill in 15 volumes of double-distilled water at 4° C., then centrifuged at 8,000 G for 20 min. The pellet is discarded and the supernatant and layer of skin (buffy coat) are centrifuged at 40,000 G for 20 min. The pellet is recovered and resuspended in 15 volumes of double-distilled water at 4° C. and is centrifuged again at 40,000 G for 20 min, before being stored at −80° C. […] The filters are rinsed with two times 5 ml of buffer at 4° C. and the radioactivity retained on each filter is measured by liquid scintigraphy. The nonspecific binding in the presence of α-bungarotoxin at 1 μM final is measured; the nonspecific binding represents approximately 60% of the total binding recovered on the filter. […]

`O=C(c1n[nH]c2ccc(Cl)cc12)N1CCN2CCC1C2` (stereo not shown) gave an IC50 of 224 nM.
